Source: patent US20210162009A1, “CHEMOKINE VARIANTS AS IMMUNE STIMULANTS” (THE MEDICAL COLLEGE OF WISCONSIN, INC., priority 2017, published 2021)

Experiment: Translational diffusion measurements (dimerisation state)
Format: physicochemical
Settings: 20 mM sodium phosphate pH 7.4; non-linear fitting of Ds values; read-out: dimer dissociation Kd
Source text: The lines connecting the cysteines show where the intra-and intermolecular disulfide bonds are. A) CXCL12-α2 locked dimer amino acid sequence with the conserved intramolecular disulfide bonds (black lines) and the engineered intermolecular disulfide bonds (red lines) illustrated. B) SDS-PAGE of CXCL12-αand CXCL12-α2 treated with and without dithiothreitol (DTT). CXCL12-α and CXCL12-α2 migrate near the monomeric molecular weight of 8 kDa when treated with DTT. In contrast, CXCL12-α2 migrates as a dimer while CXCL12-α migrates as a monomer in the absence of DTT. C) Translational diffusion measurements of CXCL12-α2 indicate CXCL12-α2 is dimeric. […] Ds values for 10, 50, and 150 μM SDF12 (red triangles) range from 1.08-1.09 (×10^−6 cm^2s^−1) consistent with those expected for CXCL12-α in the dimeric state. D) N-terminal peptides corresponding to the first thirty-eight amino acids of CXCR4 are illustrated. The sequence for p38 is identical to that of CXCR4 except for an additional N-terminal Gly-Ser dipeptide (cloning artifact) and the C28A substitution (green) introduced to prevent oxidative peptide dimer formation. The sulfated peptides are identical to p38 except for the inclusion of sulfotyrosine at position 21 for p38-sY1 and at positions 7, 12 and 21 for p38-sY3.

Substance “wild-type CXCL12: wild type CXCL12 chemokine (SEQ ID NO:3), natural ligand for CXCR4” has a Kd of 120 µM.
